AlphaSeq binding of Ab-14 heavy chain variants to a spike HR2 peptide

Binding partner: SARS-CoV-2 spike HR2 peptide, sequence PDVDLGDISGINAS.

The variants keep the light chain, the linker and the frameworks of Ab-14 (scFv order VH, three GGGGS repeats, VL).
VH: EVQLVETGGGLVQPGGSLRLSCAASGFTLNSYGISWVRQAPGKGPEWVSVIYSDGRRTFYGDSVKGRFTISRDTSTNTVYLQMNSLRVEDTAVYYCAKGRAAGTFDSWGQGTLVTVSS
VL: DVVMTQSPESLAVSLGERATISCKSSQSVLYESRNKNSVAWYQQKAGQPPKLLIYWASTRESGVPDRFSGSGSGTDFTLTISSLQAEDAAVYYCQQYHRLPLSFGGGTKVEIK

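Phage display of a naive human antibody library on the peptide gave the parent. In library AAYL49, one, two or three CDR residues were substituted; doubles and triples were drawn at random. The scFvs were displayed on barcoded MATa yeast, the peptide on MATalpha yeast. The frequency of each diploid, read from paired DNA barcodes, reflects how well the two displayed proteins bind. Each replicate has its own calibration line, from reference interactions of the BCL2 family. Each pool was mated in three replicate cultures.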

Positions count from residue 1 of the parent VH; V50I puts I in place of V. This list gathers variants with a substitution at V50 (VH, numbered from residue 1). Each Kd is an estimate from the mating assay, the geometric mean of the replicates in which the pair was seen; lower is stronger. A pair that was not seen in any replicate is written "no signal"; this usually means weak binding, but a binder can also be missed. Empty control strains, which show no peptide, gave a signal in 15% of pairings with library AAYL49; the median was 11 µM and 95% of these signals were weaker than 680 nM. No background was subtracted.

For V50I+D54V+D62V, the assay gave no signal (0 of 3 replicates). The variant V50Y+S53K+S107K showed no signal (0 of 3 replicates). With L29F+V50R+S107T the result was no signal (0 of 3 replicates). The variant V50C gave 1.5 µM (3 of 3 replicates). For S31G+V50C+A102W, the assay gave no signal (0 of 3 replicates). The variant V50N+S53R+F59H gave no signal (0 of 3 replicates). For S31V+V50E+S63P, the assay gave 8.5 µM (1 of 3 replicates).

The variant T28I+V50D showed no signal (0 of 3 replicates). The variant V50T+G55N+R56P gave 4.7 µM (1 of 3 replicates). For S31V+V50A, the assay gave no signal (0 of 3 replicates). The variant S35M+V50S+Y52C gave 4.2 µM (1 of 3 replicates). The variant T28F+V50I+G55M gave no signal (0 of 3 replicates). For V50H+D54Q+G103T, the assay gave no signal (0 of 3 replicates). For V50W+A101N+F105T, the assay gave no signal (0 of 3 replicates).

The variant L29K+N30E+V50L showed no signal (0 of 3 replicates). For V50P+I51D+Y60A, the assay gave no signal (0 of 3 replicates). The variant V50F+R57C+Y60G gave 140 µM (1 of 3 replicates). The variant N30H+V50Q+S53A showed 4.2 µM (1 of 3 replicates). For N30G+V50Q+G103D, the assay gave no signal (0 of 3 replicates). For V50T+F59K+S63N, the assay gave no signal (0 of 3 replicates). With V50F+I51Q+V64P the result was no signal (0 of 3 replicates).

The variant V50S gave 19 µM (1 of 3 replicates). With V50S+G55T the result was no signal (0 of 3 replicates). The variant V50G+S53T+G99L showed 62 µM (3 of 3 replicates). For V50F+T58I+G61K, the assay gave 7.2 µM (2 of 3 replicates). With V50Y+D54S+A101C the result was no signal (0 of 3 replicates). The variant Y32D+V50L showed no signal (0 of 3 replicates). For V50E+Y52E+K65F, the assay gave no signal (0 of 3 replicates).

The variant G33P+V50H+A102C showed 41 µM (1 of 3 replicates). With V50M+D62C+G103H the result was no signal (0 of 3 replicates). For V50I+S53H+R56I, the assay gave 13 nM (3 of 3 replicates). For V50M+G61T+F105W, the assay gave 12 µM (1 of 3 replicates). For G33I+V50F+R57E, the assay gave 930 nM (1 of 3 replicates). The variant T28H+V50W+T58R showed no signal (0 of 3 replicates). The variant G33A+V50G+Y60W gave no signal (0 of 3 replicates).

With F27S+V50D+S63P the result was 2.3 mM (1 of 3 replicates). For S31N+V50P+I51A, the assay gave no signal (0 of 3 replicates). With V50C+D62G+A101I the result was 1.2 µM (3 of 3 replicates). The variant V50F+D54N+D62K gave no signal (0 of 3 replicates). The variant V50F+Y60N+F105T gave no signal (0 of 3 replicates). The variant V50N+F59C+A102V showed no signal (0 of 3 replicates). The variant V50G+G61V+R100D showed no signal (0 of 3 replicates).

For F27C+V50R+G61I, the assay gave 74 µM (1 of 3 replicates). The variant S31W+V50N+T104F showed 7.9 µM (1 of 3 replicates). The variant V50S+A101M+S107W showed no signal (0 of 3 replicates). With L29R+V50C+D54E the result was no signal (0 of 3 replicates). The variant V50F gave no signal (0 of 3 replicates).

Repeated from above, the 4 best binders with a signal in all replicates:

changes	Kd	detected
V50I+S53H+R56I	13 nM	3 of 3
V50C+D62G+A101I	1.2 µM	3 of 3
V50C	1.5 µM	3 of 3
V50G+S53T+G99L	62 µM	3 of 3

Values reported by Engelhart et al. 2022, doi:10.1038/s41597-022-01779-4 (FLAb copy).